Test results: patent US12599672B2, “KRAS proteolysis targeting chimeras” (PAQ Therapeutics Inc., priority 2023, dated 2026)

Chains of the proteins cited; added tags and fusions are not shown. Residues count along the entry.
UniProt P01116, 1-188 isoform 2 G12D: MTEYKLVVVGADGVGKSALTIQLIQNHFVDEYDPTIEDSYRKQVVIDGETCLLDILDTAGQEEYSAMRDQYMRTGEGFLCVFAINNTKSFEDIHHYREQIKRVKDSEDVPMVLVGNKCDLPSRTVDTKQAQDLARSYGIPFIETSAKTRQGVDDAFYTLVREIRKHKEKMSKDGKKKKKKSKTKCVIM
UniProt P01116, 1-188 isoform 2 G12V: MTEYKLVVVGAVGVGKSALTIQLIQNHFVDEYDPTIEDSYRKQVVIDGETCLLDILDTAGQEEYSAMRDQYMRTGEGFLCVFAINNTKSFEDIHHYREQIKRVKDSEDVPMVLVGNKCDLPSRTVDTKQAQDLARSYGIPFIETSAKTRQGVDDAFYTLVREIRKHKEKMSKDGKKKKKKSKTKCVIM
UniProt P01116, 1-188 isoform 2: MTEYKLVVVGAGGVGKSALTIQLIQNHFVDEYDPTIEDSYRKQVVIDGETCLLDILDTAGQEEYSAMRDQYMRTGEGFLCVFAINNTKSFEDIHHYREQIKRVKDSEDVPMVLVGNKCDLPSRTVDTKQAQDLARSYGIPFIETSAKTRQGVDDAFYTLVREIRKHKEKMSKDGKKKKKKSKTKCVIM

Experiments:
KRAS G12V = KRAS G12V (Homo sapiens, UniProt P01116, G12V); assay: KRAS G12V HiBit assay; conditions: read-out: Average DC50; SW620-KRAS (G12V)-HiBit-KI cells, compound treatment for 24 hours, class symbols
KRAS G12D = KRAS G12D (Homo sapiens, UniProt P01116, G12D); assay: KRAS G12D HiBit assay; conditions: read-out: Average DC50, AsPc-1-KRAS (G12D)-HiBit-KI cell, compound treatment for 24 hours, absolute DC50
KRAS = KRAS (Homo sapiens, UniProt P01116); assay: KRASamp MSD assay; conditions: read-out: Average DC50; KE39 (KRAS amplified) cells, treated with test compounds for 24 hr, MSD readout of KRAS degradation
Method: KE39 (KRAS amplified) cells were cultured in RPMI 1640 medium (Gibco, 11875093), seeded into 96 well plate and treated with test compounds for 24 hr. The cells were washed with PBS and lysed in plate for 1 hr at 4° C. with agitation in RIPA buffer (Cat No. BP-115D) supplemented with protease and phosphatase inhibitor cocktail. The lysates were loaded into MSD plate coated with KRAS capture antibody (LSBio, C175665, 1:1000) for 1 h at RT with agitation. The plate was then washed three times with TBST and incubated with KRAS detection antibody (Abcam, Ab275876. 1:2000) for 1 h at RT. After washing three times with TBST, the plate was incubated with secondary detection antibody GAR (1:500) for 1 hr at RT followed with 3×TBST washing. 2×MSD reading buffer was added into individual wells and the plate was finally read by MSD reader (MSD, SQ 120 MM). The recombinant WT KRAS protein was used for standard curve generation and protein quantification. The degradation activity was calculated using the following formula: […]
DC50 was calculated by fitting the curve using GraphPad Prism v8.0.2 (analysis 263): […]

Compound	DC50 (KRAS G12V) [µM]	DC50 (KRAS G12D; numeric bounds given in place of class symbols) [µM]	DC50 (KRAS) [µM]	DC50 (KRAS G12D; class symbols) [µM]
CCc1c(F)ccc2cc(O)cc(-c3ncc4c(N5CCC[C@@](C)(O)C5)nc(OC[C@@]56CCCN5[C@H](CN5CCC(Cc7ccc8c(c7)n(C)c(=O)n8C7CCC(=O)NC7=O)CC5)CC6)nc4c3F)c12 (stereo partly drawn)	> 0.1	> 0.1	–	–
CCc1c(F)ccc2cc(O)cc(-c3ncc4c(N5CCC[C@@](C)(O)C5)nc(OC[C@]56CCCN5[C@H](CN5CCC(CN7CCC(c8ccc9c(c8)n(C)c(=O)n9C8CCC(=O)NC8=O)CC7)CC5)CC6)nc4c3F)c12 (stereo partly drawn)	0.01 to 0.1	–	0.001 to 0.01	< 0.1
CCc1c(F)ccc2cc(O)cc(-c3ncc4c(N5CCC[C@@](C)(O)C5)nc(OC[C@@]56CCCN5[C@H](COC5CCc7cc(CN8CCC(c9ccc%10c(c9)n(C)c(=O)n%10C9CCC(=O)NC9=O)CC8)ccc75)CC6)nc4c3F)c12 (stereo partly drawn)	< 0.01	–	–	< 0.1
CCc1c(F)ccc2cc(O)cc(-c3ncc4c(N5CCC[C@@](C)(O)C5)nc(OC[C@@]56CCCN5[C@H](CN5CCC(OC7CCN(c8ccc9c(c8)n(C)c(=O)n9C8CCC(=O)NC8=O)CC7)CC5)CC6)nc4c3F)c12 (stereo partly drawn)	0.01 to 0.1	–	–	< 0.1
CCc1c(F)ccc2cc(O)cc(-c3ncc4c(N5CCC[C@@](C)(O)C5)nc(OC[C@@]56CCCN5[C@H](CNCC5CCC(CN7CCC(c8ccc9c(c8)n(C)c(=O)n9C8CCC(=O)NC8=O)CC7)CC5)CC6)nc4c3F)c12 (stereo partly drawn)	0.01 to 0.1	–	0.001 to 0.01	< 0.1
CCc1c(F)ccc2cc(O)cc(-c3ncc4c(N5CCC[C@@](C)(O)C5)nc(OC[C@@]56CCCN5[C@@H](CN5CCC(CN7CCC(c8ccc9c(c8)n(C)c(=O)n9C8CCC(=O)NC8=O)CC7)CC5)CC6)nc4c3F)c12 (stereo partly drawn)	0.01 to 0.1	–	0.001 to 0.01	< 0.1

Read-outs that look alike come from different tables or passages of the source.
